The values below come from article PMC10059799 (Viruses, 2023).

The experiment concerns the target T1, HKU15 M^pro (Porcine deltacoronavirus, UniProt A0A0E3N825).
T1 construct: gene ORF1ab
The conditions noted are these: covalent; catalytic cysteine, active site, full occupancy in both protomers; cocrystallized at pH […]; twinned crystal.

As to `COc1cccc2[nH]c(C(=O)N[C@@H](CC(C)C)C(=O)N[C@@H](C[C@@H]3CCNC3=O)C(=O)CO)cc12` [PF-00835231], the X-ray cocrystal structure entry was “PF-00835231 bound at the active site of HKU15 M^pro, with the same binding mode”.
